Test results as given in ChEMBL document CHEMBL3352205, “Indazole- and indole-5-carboxamides: selective and reversible monoamine oxidase B inhibitors with subnanomolar potency” (J Med Chem, 2014).

Species: Homo sapiens
Test: Selectivity index, ratio of IC50 for human recombinant MAO-A to IC50 for human recombinant MAO-B

Ratio IC50: 5730
SMILES: O=C(Nc1ccc(Cl)c(Cl)c1)c1ccc2[nH]ccc2c1
